Source: patent publication US9089129B2, “Non-aerosol foaming alcohol hand sanitizer” (AMERICAN STERILIZER COMPANY, priority 2011, dated 2015)

Assay: Foam quality and stability screen in 70% w/w ethanol solution
Assay type: physicochemical
Design: key: Poor: little to no foam generated; Moderate: some foam generated, and/or foam generated collapsed rapidly; Good: large amount of foam was generated and foam was stable (did not collapse rapidly)
Conditions: approximately one gram of component in 15 grams of 70% w/w ethanol solution (aqueous), shaken by hand for 15 seconds
Procedure: A number of different components were screened to evaluate their ability to create a stable foam in a 70% w/w ethanol solution (aqueous). For this evaluation, approximately one gram of each component was added to 15 grams of the ethanol solution in a vial.

Substance: lsosteareth-3 Octanoate
- Foam Profile: Poor
